Molecular target: purified recombinant full-length WDR5 (UniProt P61964)

GST-tagged MLL1 Win-SET domain, MLL1(3745-3969), Win motif arginine to alanine mutant
core complex methyltransferase activity, H3K4me1 and H3K4me2 peptides, mutant against wild type: at least a 2-fold reduction in activity compared to their wild-type counterparts

Source: US20180282373
